Data on one compound can be found in patent US20110071124A1, “Compounds that Inhibit Production of sAPPB and AB and Uses Thereof” (The Trustees of Columbia University in the City of New York, priority 2008, published 2011).

Chains of the proteins cited; added tags and fusions are not shown. Residues count along the entry.
UniProt P56817, 46-501 limits assumed: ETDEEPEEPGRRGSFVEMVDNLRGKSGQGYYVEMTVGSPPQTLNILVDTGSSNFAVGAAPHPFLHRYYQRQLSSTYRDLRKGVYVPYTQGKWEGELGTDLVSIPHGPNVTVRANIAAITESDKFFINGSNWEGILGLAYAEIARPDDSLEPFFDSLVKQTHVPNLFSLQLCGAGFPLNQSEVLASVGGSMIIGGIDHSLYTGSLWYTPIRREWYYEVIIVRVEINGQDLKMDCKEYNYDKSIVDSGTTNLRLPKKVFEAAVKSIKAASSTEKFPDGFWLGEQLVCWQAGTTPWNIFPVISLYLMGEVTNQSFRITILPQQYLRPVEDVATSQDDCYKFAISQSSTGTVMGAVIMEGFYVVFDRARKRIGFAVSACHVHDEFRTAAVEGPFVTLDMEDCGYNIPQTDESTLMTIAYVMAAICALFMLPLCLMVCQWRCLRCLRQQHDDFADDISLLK

Assay [1] relates to sAPPβ (BACE1 cleavage of SEAP-APPwt) in SY5Y-BACEGFP-SEAPAPPwt cells. Description: cell-based BACE1 assay (sAPPβ modified ELISA). The following applies: read-out: cell-based IC50 (sAPPβ), 12-point dose-response; 12 concentrations 0.1 nM to 30 μM, 96-well format (FIG. 8). Background: In an ELISA, binding on a coated surface is turned into a signal by an enzyme label.
For assay [2], the target named is purified recombinant β-secretase (BACE1) (Homo sapiens, UniProt P56817). Briefly: BACE1 FRET enzymatic assay (Invitrogen).

Usually IC50 stands for the concentration that inhibits the measured activity by half.

SMILES strings stand for the structures.

Turning to `CN1C(=O)C2(NNC(c3cccc4ccccc34)S2)c2ccccc21` (stereo not drawn), the IC50 in assay [1] turned out to be 0.43 µM; in assay [2] (read-out: enzymatic IC50 (FRET-based BACE1 assay), 12 doses) it was 2.31 µM. For the same compound, in assay [2] (3 concentrations (0.1, 1, and 10 μM)), the “dose-dependent inhibition of β-secretase” value is listed as “exhibited a dose-dependent effect”.
